{"source": "patent US20210388112A1", "molecular_target": "T1, fusion protein of a peptide fragment containing the trastuzumab-binding region of HER2 (HER2-Tras-binding fragment) and glutathione S-transferase (GST)", "T1 chain": "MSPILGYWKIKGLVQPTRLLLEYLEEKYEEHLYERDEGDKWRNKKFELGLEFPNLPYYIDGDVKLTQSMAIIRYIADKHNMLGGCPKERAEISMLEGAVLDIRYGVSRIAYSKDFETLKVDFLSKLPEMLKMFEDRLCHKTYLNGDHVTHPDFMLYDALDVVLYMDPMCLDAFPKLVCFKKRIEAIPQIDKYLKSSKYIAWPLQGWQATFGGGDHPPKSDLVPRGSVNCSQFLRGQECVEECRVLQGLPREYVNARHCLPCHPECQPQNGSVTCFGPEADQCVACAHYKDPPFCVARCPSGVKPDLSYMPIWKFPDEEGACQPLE", "test": "SPR (Biacore T200), GST-HER2 captured by GST Capture Kit, 25 C", "data": [{"binder": "cyclic Tras-scFv cyclized by an intein (scFv, modifications not checked) scFv: CFNGTHHHHHHAAA[skipping about 120 residues]GGGGSGGGGSGGGGSDIQMTQSPSSLSASVGDRVTITCRASQDVNTAVAWYQQKPGKAPKLLIYSASFLYSGVPSRFSGSRSGTDFTLTISSLQPEDFATYYCQQHYTTPPTFGQGTKVEIKSGSGSS", "values": [{"measurement": "Kd", "value": 590, "unit": "pM"}]}]}
